Antibody variant affinities, Ab-91 heavy chain, assay 2

Source: Engelhart et al. 2022 (doi:10.1038/s41597-022-01779-4), MIT Lincoln Laboratory and A-Alpha Bio; data file from the FLAb repository.

The target is the same throughout: PDVDLGDISGINAS, from the HR2 region of SARS-CoV-2 spike.

Each scFv is VL, a 15-residue (Gly4Ser)3 linker, VH, as in the parent Ab-91, and differs from it in the CDRs of the heavy chain only.
VL: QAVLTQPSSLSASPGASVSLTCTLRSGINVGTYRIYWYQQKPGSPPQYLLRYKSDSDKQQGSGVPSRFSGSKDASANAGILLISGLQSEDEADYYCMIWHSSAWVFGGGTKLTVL
VH: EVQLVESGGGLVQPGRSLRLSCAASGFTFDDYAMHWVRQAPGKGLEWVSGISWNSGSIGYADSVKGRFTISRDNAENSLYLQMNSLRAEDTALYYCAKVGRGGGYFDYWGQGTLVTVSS

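The parent was found by panning a naive human phage display library on the peptide. The library (AAYL51) carries one to three amino acid substitutions per variant, with no insertions or deletions. AlphaSeq pools MATa yeast showing the antibodies with MATalpha yeast showing the peptide. The frequency of each diploid, read from paired DNA barcodes, reflects how well the two displayed proteins bind. The ratio of observed to expected reads was calibrated, replicate by replicate, on BCL2-family standards whose Kd was known from biolayer interferometry. Each pool was mated in three replicate cultures.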

Variants are written as CDR1, CDR2 and CDR3 of the heavy chain (limits as in the source). Parent: GFTFDDYAMH, GISWNSGSIGYADSVK, VGRGGGYFDY.
Values are log10 of the apparent Kd in nM; lower means stronger binding.
Replicates are averaged; those with no signal do not enter the mean.
A pair that was not seen in any replicate is written "no signal"; this usually means weak binding, but a binder can also be missed.
Parent in this assay: reference entry 1.86, copy in this library 0.88.
Three control strains display no target. For library AAYL51, 21% of the pairings with them gave a signal, with a median of 4.54 and one signal in twenty below 3.26, so weak values seen in few replicates may be background.

CDR-H1,CDR-H2,CDR-H3,"log10 Kd (nM), mean",replicates with signal
GFTFDDYAMH,GISWNSGSIGYADSVM,VGRGGRYFDY,3.73,2 of 3
GFTFDDYGMH,GISWNSGSIGYADSVK,VRRGGGYFDN,2.36,3 of 3
GSTFDDYAMH,GISWNSGSCGYADSVK,VGRGDGYFDY,no signal,0 of 3
GFTFDDYAMH,GISWNSGSIGYADSVK,QGRGSGYFDY,no signal,0 of 3
GFTFDDYAMH,GISDNSGSLGVADSVK,VGRGGGYFDY,5.31,3 of 3
GFFFDDYAMH,GISWNSISIGYADSVK,VGRGGGYVDY,no signal,0 of 3
GFTFDDYARH,GISWNSISIGYADSVK,VGRGGGWFDY,no signal,0 of 3
GFTFDDYAMH,GIQWNSGSIGYADSVK,VGTGGGYFDY,3.40,3 of 3
GFTFDDYQMG,GISWNSGSIGYADSVK,VGRGGGYFFY,4.01,1 of 3
GFTFDDYAMH,GISWNSGSIGYAESVA,VGRHGGYFDY,no signal,0 of 3
DFTFDDYLMH,GISWHSGSIGYADSVK,VGRGGGYFDY,5.86,1 of 3
GFTFDDYWMH,GISWNSGSIKLADSVK,VGRGGGYFDY,no signal,0 of 3
GFTFSDYAMH,GISWNSGSIGYAMHVK,VGRGGGYFDY,2.45,3 of 3
GFNFDDYAMH,GISWNSGSIGYADSVK,AGRGPGYFDY,3.12,1 of 3
GFTFDYYAMH,GISWNSGSIGYADSVK,VGRGGGLFDY,1.20,2 of 3
GVTFDDYAGH,GISWNSGSIGYADSVK,VGCGGGYFDY,4.38,1 of 3
GFTFDDYAPH,GISWNSGSIGYADSVK,VGRGEGSFDY,no signal,0 of 3
GFTFDDYAMH,GISPNSGSIGYADSVK,VGRGGHYFDY,3.50,1 of 3
GFMFDDYAMH,GISWNSSSIGYADSVK,VGRGGGYFFY,no signal,0 of 3
GFTFDMYAMH,GISWNSGSIGAADSVK,VGLGGGYFDY,2.50,2 of 3
GFTFDDYAMC,GISWNSGSIGYVDSVK,VGRGGWYFDY,no signal,0 of 3
GFTFDDYAMH,GISYNSGSIGYADSAC,VGRGGGYFDY,no signal,0 of 3
GFTFDDYAYH,GISWNSGSIGYADSVK,VGRGYGYFVY,no signal,0 of 3
GFTFDDYAMH,GISWNSCSIGYADSVK,VGVGGGNFDY,3.07,1 of 3
GFTFDDYAMH,GISWNCGSTHYADSVK,VGRGGGYFDY,no signal,0 of 3
GFDFDDYAMH,GESWNSGSIGYADSVK,VGRGGGYFHY,no signal,0 of 3
GFTFDDYAMH,GINWNSGQIGYADSVK,VGRGGGYTDY,no signal,0 of 3
GFTFDDNAMD,GISWNSGSIGYADSVK,VGRGGGYMDY,2.77,3 of 3
GFTFHDEAMH,GISWNSGSIYYADSVK,VGRGGGYFDY,no signal,0 of 3
GFTFDDYAMH,GIIWNSGLIGYADSVK,VGRGGGYFMY,5.11,2 of 3
GFTFDDYAMR,GISWNSGSQGYADSVK,VGRFGGYFDY,4.69,1 of 3
GFTFDDYAMH,GISWNSGSIGWADSVK,VGRHGGYFDY,no signal,0 of 3
GFTFDDYAMH,GISWNSGSIGYADSVK,IGRGGMYFDY,2.99,3 of 3
GFMFDDYAIH,GISWNSGSIGYADCVK,VGRGGGYFDY,4.46,2 of 3
GGTFDDYAMH,GISWLSGSIGYADSVK,VGVGGGYFDY,no signal,0 of 3
GFTFDDYAMH,GISWNLGSIGYWDSVK,VGFGGGYFDY,no signal,0 of 3
GFTFDDHAMH,GISWNSGSIGSADSVK,VGRGGGYFHY,no signal,0 of 3
GCTFDDYACH,GISWNSGSIGYADSVK,VGRGGGYFDY,4.21,2 of 3
GFCFDDYAAH,GISWNSGSIGYADSVK,VGRGGGAFDY,2.49,3 of 3
CFTFDDYAMH,RISWNSGSIGYADPVK,VGRGGGYFDY,no signal,0 of 3
GFTFDDYAMH,GIGWNSGSIGYADSVC,VGRGGGYFDY,5.60,1 of 3
GFTFDDYAMH,GISMNSGSIGYADSVN,VGRGGGYFWY,5.27,1 of 3
GFEFDRYAMH,GISWNSGSIGYADSVK,VGRGGGYFDS,0.29,3 of 3
GFTQDDYAMH,GISWNSGSITYADSVK,VGRGGGYFDY,no signal,0 of 3
GFTFDDYAMH,GISWNSGSIGYADSVA,VGRGGQYFDY,no signal,0 of 3
GFTFDDYAMH,GISWNSGSMGYADSVK,DGRGGGYFLY,4.22,3 of 3
GMTFTDYAMH,GISWNSGSIGYADSVK,GGRGGGYFDY,3.13,1 of 3
GFTFDDYAMD,GIMWNSGSIGYADSVK,VGRGIGYFDY,no signal,0 of 3
GFTFDLYAMH,GISWNSGSIQYADSVK,VGRGGGYFDA,no signal,0 of 3
GFTFDDYAMH,GISWSSGSIGYADSVK,VERGGGFFDY,no signal,0 of 3
GVTFDDYAMH,GISWNSGSIGYADSCK,VGRGGGWFDY,no signal,0 of 3
AFTFDDCAMH,GISWNSGSIGCADSVK,VGRGGGYFDY,no signal,0 of 3
GYTFDDYAMH,GISWNSGSIGYADSVK,LVRGGGYFDY,no signal,0 of 3
GFTFDDYAMG,GISWNSGSIVYADSVK,VGRGGGFFDY,no signal,0 of 3
FFTFDDYAMH,GISWWSGSIGYADIVK,VGRGGGYFDY,4.57,2 of 3
GFTFDDYAMH,GIAWNSGSIGYMDSVK,VGRGGVYFDY,no signal,0 of 3
GFQFDDYAMH,GISWNMGSIGYADSVK,VGRGGGVFDY,3.18,3 of 3
GFTFDDYAMH,GISYNSGSIGYADSVK,VGRGGGYFDN,no signal,0 of 3
GFDFDDYAMH,GISWNYGSIGYADSVK,VGRGGGYFDY,4.49,1 of 3
GFLFDQYAMH,GISWLSGSIGYADSVK,VGRGGGYFDY,3.28,2 of 3
GFTFDDYAMH,GQSWNSGSIGTADSVK,VGEGGGYFDY,5.02,1 of 3
GFTFDDHAMH,GISWNSGSIGYLDSVK,VGRGGGYYDY,no signal,0 of 3
GFTFDDYQMH,GISWNSGSHMYADSVK,VGRGGGYFDY,no signal,0 of 3
GFTFDDYAMH,GISWNSGSIGYADWVK,VGRGGGYKDK,no signal,0 of 3
GFTFDDYAMH,GISHNVGSIGYADSVK,TGRGGGYFDY,4.13,1 of 3
GFTFDDYAMH,GISWHSGSVGYADSYK,VGRGGGYFDY,4.73,1 of 3
GFTFDDYQMH,GISWNRGSIGYADSVK,VGRGGCYFDY,no signal,0 of 3
GFWFDDYAMH,GISWNSGSIGYADSVK,VGRGGQYFLY,4.61,1 of 3
GFTFDDYAMH,GIVWNSGSIGYADSVK,QGRGGVYFDY,no signal,0 of 3
GFTFDDYAMH,GISWNSPSIGYWDSVK,VGRGGGYFDY,no signal,0 of 3
GFTFDDYANH,GISWNSGSIGYADSVD,VGIGGGYFDY,no signal,0 of 3